Data: US10183953B2, “Substituted 2-azabicycles and their use as orexin receptor modulators” (Janssen Pharmaceutica NV, priority 2013, dated 2019)

Protein sequences, listed by entry. Tags and fused reporters are not part of them.
UniProt O43613, whole entry: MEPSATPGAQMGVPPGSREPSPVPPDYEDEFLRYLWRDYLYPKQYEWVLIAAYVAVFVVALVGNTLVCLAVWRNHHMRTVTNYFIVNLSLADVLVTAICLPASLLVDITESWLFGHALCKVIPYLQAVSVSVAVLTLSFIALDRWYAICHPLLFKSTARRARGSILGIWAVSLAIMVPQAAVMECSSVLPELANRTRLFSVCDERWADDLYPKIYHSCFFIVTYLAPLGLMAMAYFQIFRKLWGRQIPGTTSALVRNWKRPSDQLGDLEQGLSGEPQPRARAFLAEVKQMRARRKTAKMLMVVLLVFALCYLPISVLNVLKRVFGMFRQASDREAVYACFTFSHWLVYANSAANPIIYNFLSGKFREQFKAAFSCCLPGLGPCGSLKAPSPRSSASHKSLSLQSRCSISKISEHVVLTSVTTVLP

Legend:
rat orexin 1 receptor = rat orexin 1 receptor (Rattus norvegicus, UniProt P56718); assay: Rat orexin 1 receptor radioligand binding (competitive, HEK293 membranes); details: rat OX1 receptor binding; averages from between 2-20 runs; read-out: rOX1 Ki
Protocol: (§1) The in vitro affinity of the compounds of the invention for the rat/human orexin 1 and human orexin 2 receptors was determined by competitive radioligand binding using [^3H]
(§2) Data are analyzed using pc-Sandy macro and graphed on Graphpad Prism 5. For analysis, each concentration point is averaged from triplicate values and the averaged values are plotted on Graphpad Prism. The IC50 was determined by applying the following equation (GraphPad Prism 5.0, SanDiego) for one site competition where X=log (concentration) and Y=specific binding. […] Graphpad Prism calculates Ki value from IC50 and the pre-determined Kd values for [^3H]-(1-(5-(2-fluoro-phenyl)-2-methyl-thiazol-4-yl)-1-((S)-2-(5-phenyl-(1,3,4)oxadiazol-2-ylmethyl)-pyrrolidin-1-yl)-methanone) and [3H]-EMPA. […]
(§3) After centrifugation (2K×G, 5 min at 4° C.), the supernatant was aspirated and the pellets frozen and stored at −80° C. […] Total and nonspecific binding was determined in the absence and presence of 10 μM almorexant. […] Plates were dried in 55° C. oven for 60 min, scintillation fluid was added, and the radioactivity was counted on a Topcount (Packard).

human orexin 1 receptor = human orexin 1 receptor (Homo sapiens (Human), UniProt O43613); assay: Human orexin 1 receptor radioligand binding (competitive, CHO membranes); details: human OX1 receptor binding; averages from between 2-20 runs; read-out: hOX1 Ki
Protocol: as §1, §2, §3

pKi (rat orexin 1 receptor): 8.10
pKi (human orexin 1 receptor): 8.30
SMILES: Cc1ccc(-n2nccn2)c(C(=O)N2C[C@@H]3CC[C@H]2[C@H](Nc2cnc(C(F)(F)F)cn2)C3)n1 [Example 83, (6-methyl-3-(2H-1,2,3-triazol-2-yl)pyridin-2-yl)((1S,4R,6R)-6-((5-(trifluoromethyl)pyrazin-2-yl)amino)-2-azabicyclo[2.2.2]octan-2-yl)methanone]

pKi: −log10 of the molar value.
